According to ChEMBL document CHEMBL4513216, “Probing the Open Global Health Chemical Diversity Library for Multistage-Active Starting Points for Next-Generation Antimalarials” (ACS Infect Dis, 2020):

System: HepG2
Test: Toxicity liver stage against HepG2, at 10uM
Assay type: cell-based
Design: test concentration 10 uM, cell line HepG2-A16-CD81EGFP
Conditions: human, hepg2, 10 µM
Summary of the method: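 Uninfected HepG2-A16-CD81EGFP cells, 3 × 10^3 per well, 1536-well, plated on prespotted compound at 10 μM final, parasite-free screening media added to match infected plates; puromycin 10 μM positive, DMSO 0.5% negative; run in parallel with 48 h PbLuc assay at 37 °C, 5% CO2; viability by CellTiter-Glo luminescence, normalized to controls.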

Structure (SMILES)	INHIBITION
NC1(CNC(=O)c2cc3ccccc3[nH]2)CCCCC1	1.87%
COc1ccc(CN2CCC(Nc3ccc(Br)cc3)CC2)cc1OC	-6.72%
COc1ccc(NC2CCN(CCc3ccccc3)CC2)cc1OC	3.88%
COc1ccccc1NC1CCN(Cc2ccc(Br)cc2)CC1	-156%
COc1ccccc1NC1CCN(Cc2scnc2C)CC1	-0.847%
CC1(C)CN(C2(CNC(=O)c3c[nH]nn3)CCCCC2)CCO1	13.8%

This is a selection: effects in other tests are not listed, and their absence says nothing.
